Assays:
[1] = molecular target: T1, endothelin ETA receptor (Rattus norvegicus, UniProt P26684); experiment: FCS time-dependent binding of Alexa532-ET1 after preincubation of A10 cells with BQ-123; design: endothelin ETA receptor-ligand complex alone and under the influence of a semisynthetic selective antagonist and a fungal extract on living A10 cells; endogenous in cells; host or cells: A10 cells; details: for receptor-ligand complex to which ligand binding was found (in words): 10 min preincubation with 1 μM BQ-123, 5 nM Alexa532-ET1; for total binding of Alexa532-ET1, time course (in words): 10 min preincubation with 1 μM BQ-123, 5 nM Alexa532-ET1, 30 to 60 min
Method: The coverslips were placed in a Nunc 12 well plate, and the cells were cultured for 7 days in Dulbecco's Modified Essential Media supplemented with L-glutamine (2 mM), 1% of a solution containing 10000 I.U./mL penicillin and 10000 μg/mL streptomycin (GIBCO, Invitrogen, Karlsruhe, Germany) and 20% foetal calf serum. The cells were grown in 5% CO2 at 37°C until confluence was reached.

Sequences of proteins named here, by UniProt entry; tags and fusion partners are left off. Residues count along the entry.
UniProt P26684, 21-426: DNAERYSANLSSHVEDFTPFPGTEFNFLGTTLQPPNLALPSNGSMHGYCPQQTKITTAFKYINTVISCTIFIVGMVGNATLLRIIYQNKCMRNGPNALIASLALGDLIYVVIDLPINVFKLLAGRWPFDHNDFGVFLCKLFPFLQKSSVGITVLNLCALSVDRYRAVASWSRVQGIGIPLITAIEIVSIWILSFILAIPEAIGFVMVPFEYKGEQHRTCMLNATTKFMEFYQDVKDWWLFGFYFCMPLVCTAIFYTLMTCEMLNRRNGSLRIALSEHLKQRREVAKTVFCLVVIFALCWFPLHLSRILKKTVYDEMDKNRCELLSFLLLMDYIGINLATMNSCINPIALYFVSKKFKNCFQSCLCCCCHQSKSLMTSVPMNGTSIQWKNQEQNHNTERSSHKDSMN

[2] = molecular target: T1, endothelin ETA receptor; experiment: FCS displacement of prebound Alexa532-ET1 from ETA receptor on living A10 cells
[3] = 10 min preincubation with 1 μM BQ-123, 5 nM Alexa532-ET1, at 30 min
[4] = 1 μM BQ-123, 30 min, 14.3 nM Alexa532-ET1
[5] = 1 μM BQ-123, 30 min, after 45 min with 14.3 nM Alexa532-ET1, mean ± SD of six independent experiments

With BQ-123 the “receptor-ligand complex to which ligand binding was found (in words)” value [1] was “only for the unrestricted diffusing receptor-ligand complex”, the “total binding of Alexa532-ET1, time course (in words)” value [1] was “stable up to 60 min” and the “total binding of Alexa532-ET1, time course (in words)” value ([1]; listed as BQ123) was “stable after 60 min”. The “total binding of Alexa532-ET1” value ([1]; 10 min preincubation with 1 μM BQ-123, 5 nM Alexa532-ET1, after 15 min) was 14.4 ± 5.1%, the “nonspecific binding of Alexa532-ET1” value [1, 3] was 1.6 ± 0.2 nM and the “total binding of Alexa532-ET1” value [1, 3] was 32.9 ± 3.9%. For the same substance, the “receptor-ligand complex to which ligand binding was found (in words)” value ([1]; listed as BQ123) was “selectively found for unrestricted diffusing receptor-ligand complexes”, the “binding affinity to the “inactive” receptor state (in words)” value ([1]; preincubation with 1 μM BQ-123, 5 nM Alexa532-ET1, slow diffusion time constant) was “strong binding affinity to the “inactive” receptor state” and the “remaining (nonspecific) binding of Alexa532-ET1” value [2, 4] was 8 ± 2%. The “remaining (nonspecific) binding of Alexa532-ET1, concentration” value [2, 4] was 1.1 ± 0.3 nM, the “Free L with D free [%] after displacement” value [2, 5] was 92 ± 2% and the “R-L with D bound1 [%] after displacement” value [2, 5] was 5 ± 2%. For the same substance, the “R-L with D bound2 [%] after displacement” value [2, 5] was 3 ± 1% and the “pharmacological profile at ETA receptors on A10 cells (in words)” value ([2]; concluded from FCS binding to “inactive” receptor state) was “inverse agonists of ETA receptors”.

From PMC3353486, “Fluorescence Correlation Spectroscopy in Drug Discovery: Study of Alexa532-Endothelin 1 Binding to the Endothelin ETA Receptor to Describe the Pharmacological Profile of Natural Products” (The Scientific World Journal, 2012)
